Results on four molecules are retold here after patent US4518779A, “1,2,3,4-Tetrahydro-1-aminomethyl-4-phenyl isoquinolines” (Pennwalt Corporation, priority 1982, dated 1985).

Counter-ions that a name gives are not always drawn.

The subject of the experiment is [^3 H]-QNB binding in brain homogenates. The experiment is described as follows: in vitro inhibition of the binding of tritiated quinuclidinyl benzylate in brain. Conditions: read-out: (^3 H)QNB rating: molar concentration required to inhibit by 50% the binding of [^3 H]QNB, smaller numbers indicate greater potency.
On to `CNC[C@@H]1NC[C@H](c2ccccc2)c2ccccc21` (relative stereo) [Example 1 cis form, cis-1,2,3,4-tetrahydro-1-methylaminomethyl-4-phenylisoquinoline dihydrochloride], for which the IC50 was found to be 2.6 µM.

Turning to `CNC[C@@H]1NC[C@@H](c2ccccc2)c2ccccc21` (relative stereo) [Example 1 trans form, trans-1,2,3,4-tetrahydro-1-methylaminomethyl-4-phenylisoquinoline dihydrochloride], the IC50 worked out at 3.6 µM.

On to `CN(C)C[C@@H]1NC[C@H](c2ccccc2)c2ccccc21` (relative stereo) [Example 2, 1,2,3,4-tetrahydro-1-dimethylaminomethyl-4-phenylisoquinoline dihydrochloride], for which the IC50 was found to be 4 µM.

Turning to `CCNC[C@@H]1NC[C@H](c2ccccc2)c2ccccc21` (relative stereo) [Example 4, 1,2,3,4-tetrahydro-1-(ethylamino)methyl-4-phenylisoquinoline dihydrochloride], the IC50 is 7 µM.
